How the values were obtained:
[1] = molecular target: T1, Lysophosphatidic acid receptor 1 (Homo sapiens, UniProt Q92633); assay: Binding affinity for Lysophosphatidic acid receptor 1 expressed in RH7777 rat hepatoma cells; format: cell-based
How it was run: (§1)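 Fura-2 Ca2+ assay. RH7777 cells stably expressing LPA1, LPA2 or LPA3, or PC-3 cells (endogenous LPA1-3), seeded at 50000 cells/well on poly-D-lysine and grown overnight. Serum-starved in modified Krebs, pH 7.4, for 6-8 h (PC-3: 12 h), then Fura-2 AM loaded for 35 min. Compound added at 15 s; wells read 80-120 s. Transient taken as peak minus baseline 340/380 ratio. Antagonism: LPA 18:1 coapplied; highest concentration 30 μM.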

By UniProt entry, the sequences of proteins in these tests, tags left out. Where a name states a change or a piece, a line headed by the entry shows the natural chain unless it says otherwise.
UniProt Q92633: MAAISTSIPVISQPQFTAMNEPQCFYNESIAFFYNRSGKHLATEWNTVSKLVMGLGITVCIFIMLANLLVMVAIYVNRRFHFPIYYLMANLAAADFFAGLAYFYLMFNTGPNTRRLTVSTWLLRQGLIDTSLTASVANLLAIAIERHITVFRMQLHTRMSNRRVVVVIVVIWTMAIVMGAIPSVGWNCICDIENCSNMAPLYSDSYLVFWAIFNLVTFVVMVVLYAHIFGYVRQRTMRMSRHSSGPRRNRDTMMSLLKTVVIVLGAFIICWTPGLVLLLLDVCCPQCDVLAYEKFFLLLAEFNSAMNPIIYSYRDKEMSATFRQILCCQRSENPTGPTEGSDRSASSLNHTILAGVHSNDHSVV

[2] = molecular target: T1, Lysophosphatidic acid receptor 1; assay: Inhibition of LPA-induced calcium transients in RH7777 rat hepatoma cells expressing LPA1 receptor; format: functional, cell-based; how it was run: as §1

Compound | Ki [1] [nM] | IC50 [2] [nM]
CC/C=C/CCCCCCCCCCOP(=O)(O)O | 457 | 2200
CCCC/C=C/CCCCCCCCOP(=O)(O)O | 1150 | 3000
